The structures appear in SMILES notation. Only a part is listed here, and it is no random draw. Some salts and complexes are drawn in separate pieces, as the source files them; their charges need not balance. Activity calls are given as the source filed them.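 How the source made its calls: active means inhibition above about 55% (limit read from the data); inconclusive means no clear call, values can overlap the other calls; inactive means the rest.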

The assay can be described thus: LAMP-1 surface exposure blockers, TALL-104 cells – cell-based, flow cytometry, MLPCN library, primary screen (AID 651702). Conditions: TALL-104 LAMP-1 surface exposure, at 10 µM, hits give high values, cells stimulated with thapsigargin and PMA. On the technique in general: In flow cytometry, cells or beads pass a laser one at a time.
On to `COc1ccccc1-c1ccccn1.O=[N+]([O-])c1cc([N+](=O)[O-])c(O)c([N+](=O)[O-])c1`, for which the inhibition (as a rule, the change of the read-out against control, counted positive when it falls) is inactive: 0.1%. For `CCN(CC)CCCOC(=O)C(O)(c1ccccc1)c1ccccc1` the value was inactive: 2.2%; for `Cc1ccc(NP(C)(=O)Oc2ccccc2)c(C)c1` (stereo not drawn), inactive: 1.8%. For `COc1ccccc1OP(C)(=O)Nc1ccc(C)cc1` (stereo not drawn) the value was inactive: -4%. With `CCOC(=O)c1ccc(NP(C)(=O)Oc2ccccc2)cc1` (stereo not drawn) the figure was inactive: -5.3%; with `Cc1cc(C)cc(OP(C)(N)=O)c1` (stereo not drawn), inactive: 2.9%.

For `COc1ccc(OP(C)(=O)Nc2cccc(F)c2)cc1` (stereo not drawn), the inhibition is inactive: -1.5%. For `COc1ccccc1OP(C)(=O)Nc1cc(Cl)ccc1C` (stereo not drawn) the value was inactive: 8.9%. In the case of `O=[N+]([O-])c1cc([N+](=O)[O-])c(Nc2cccnc2)c([N+](=O)[O-])c1`, the inhibition is inactive: 7.7%. Consider `O=[N+]([O-])c1ccc2c(c1)C=Nc1ccccc1O2`, for which the inhibition was inactive: -1.9%. Take `Cc1cccc(C)c1OP(C)(N)=O` (stereo not drawn): the inhibition is inactive: 0.5%. For `CC(C)(C)c1ccc(OP(C)(=O)Nc2ccc(SC(F)(F)F)cc2)cc1` (stereo not drawn) the value was inactive: -5.4%; for `CP(=S)(Nn1cnnc1)Oc1ccccc1` (stereo not drawn), inactive: -1.6%. On to `CP(=O)(Nc1ccccc1Br)Oc1ccccc1` (stereo not drawn), for which the inhibition was inactive: -1.4%.

For the molecule `COc1ccccc1OP(C)(=O)Nc1ccccc1` (stereo not drawn), the inhibition was inactive: -5.5%. For `O=[N+]([O-])c1cc([N+](=O)[O-])c(O)c([N+](=O)[O-])c1.c1ccc(Oc2ccncc2)cc1` the value was inactive: 2.1%; for `CCOC(=O)c1ccc(NP(C)(=O)Oc2ccc(OC)cc2)cc1` (stereo not drawn), inactive: -4.1%; for `CCOP(C)(=S)SCC(=O)NC(C)C(=O)O` (stereo not drawn), inactive: 8.2%. With `CP(=O)(Nc1ccccn1)Oc1ccc(Cl)cc1` (stereo not drawn) the figure was inactive: 3.5%; with `CP(=O)(Oc1ccccc1)OC(c1ccccc1)C(F)(F)F` (stereo not drawn), inactive: 0.3%.

Regarding `CP(=O)(Nc1ccc(SC(F)(F)F)cc1)Oc1ccc(Cl)cc1` (stereo not drawn), the inhibition was inactive: 7.3%. For `Cc1cccc(C)c1OP(C)(=O)Nc1ccc(SC(F)(F)F)cc1` (stereo not drawn) the value was inactive: -0.5%; for `Cc1ccc(Nc2c([N+](=O)[O-])cc([N+](=O)[O-])cc2[N+](=O)[O-])cc1`, inactive: 0.4%; for `Cc1cc(C)cc(OP(C)(=O)Nc2ccc(SC(F)(F)F)cc2)c1` (stereo not drawn), inactive: -1.1%. For `CCc1ccc(OP(C)(=O)N2CCN(c3ccc([N+](=O)[O-])cc3)CC2)cc1` (stereo not drawn) the value was inactive: 39.5%; for `CP(=O)(NC(=O)Nc1ccccc1)Oc1ccccc1` (stereo not drawn), inactive: -4.2%; for `O=[N+]([O-])c1cc([N+](=O)[O-])c(-c2cnn(-c3ccccc3)c2)c([N+](=O)[O-])c1`, inactive: 23.2%. With `Cc1nc2ccc3ccccc3c2s1.O=[N+]([O-])c1cc([N+](=O)[O-])c(O)c([N+](=O)[O-])c1` the figure was inactive: 1%; with `O=[N+]([O-])c1cc([N+](=O)[O-])c(-n2nnc3ccccc32)c([N+](=O)[O-])c1`, inactive: -3.7%. With `CN(Cc1cccnc1)C(=O)COc1ccc(Cl)c(Cl)c1.O=[N+]([O-])c1cc([N+](=O)[O-])c(O)c([N+](=O)[O-])c1`, the inhibition is inactive: -5.2%. As for `CN1CCCCC1COC(=O)C1(O)c2ccccc2CCc2ccccc21` (stereo not drawn), the inhibition was inactive: 2.4%.

Regarding `COc1ccccc1OP(C)(=O)Nc1c(C)cccc1C` (stereo not drawn), the inhibition was inactive: -2.7%. `COc1ccc(-c2ccccn2)cc1.O=[N+]([O-])c1cc([N+](=O)[O-])c(O)c([N+](=O)[O-])c1`: the inhibition was inactive: -8.7%. As to `CP(=O)(Nc1ccc(SC(F)(F)F)cc1)Oc1ccccc1` (stereo not drawn), the inhibition is inactive: 3.4%. As to `CCCOc1ccc(NP(C)(=O)Oc2ccc(Cl)cc2)cc1` (stereo not drawn), the inhibition was inactive: -2.4%. On to `CCOC(=O)C(CC)C1=NC(C)(C)Cc2ccccc21.O=[N+]([O-])c1cc([N+](=O)[O-])c(O)c([N+](=O)[O-])c1` (stereo not drawn), for which the inhibition was inactive: -1.1%. For `O=[N+]([O-])c1cc([N+](=O)[O-])c(Nc2nnnn2CCO)c([N+](=O)[O-])c1` the value was inactive: 3.7%.

As to `CC1=C2N=C(C=C3N=C(C(C)=C4[N-][C@@](C)([C@@H]5N=C1[C@](C)(CCC(=O)NC[C@@H](C)OP(=O)([O-])O[C@H]1[C@@H](O)[C@@H](n6cnc7cc(C)c(C)cc76)O[C@@H]1CO)[C@H]5CC(N)=O)[C@@](C)(CC(N)=O)[C@@H]4CCC(N)=O)[C@@](C)(CC(N)=O)[C@@H]3CCC(N)=O)C(C)(C)[C@@H]2CCC(N)=O.[C-]#N.[Co+3]`, the inhibition was inactive: -0.7%. With `CC1=NCCc2c1[nH]c1ccccc21.O=[N+]([O-])c1cc([N+](=O)[O-])c(O)c([N+](=O)[O-])c1` the figure was inactive: -1.2%. For `O=C(O)c1cccc(Nc2c([N+](=O)[O-])cc([N+](=O)[O-])cc2[N+](=O)[O-])c1` the value was inactive: -1.7%; for `Cc1ccc(C)c(NP(C)(=O)Oc2ccccc2)c1` (stereo not drawn), inactive: -3%; for `CP(=O)(Nc1cccc(Br)c1)Oc1ccccc1` (stereo not drawn), inactive: -6.9%. With `Cc1cc(C)cc(OP(C)(=O)Nc2ccccn2)c1` (stereo not drawn) the figure was inactive: 0.3%; with `COc1ccccc1OP(C)(=O)Nc1cccc(Br)c1` (stereo not drawn), inactive: -1%. For `CCOC(=O)c1ccc(NP(C)(=O)Oc2cc(C)cc(C)c2)cc1` (stereo not drawn), the inhibition is inactive: -2.9%. For `Cc1cc(C)cc(OP(C)(=O)Nc2ccc(C)cc2C)c1` (stereo not drawn) the value was inactive: -1.7%; for `O=C(OC1CN2CCC1CC2)c1ccc([N+](=O)[O-])cc1` (stereo not drawn), inactive: 10.1%. With `O=C(OCCN1CCN(CCOCc2ccccc2)CC1)C(O)(c1ccccc1)c1ccccc1` the figure was inactive: -2.8%. `COc1ccc2c(c1O)-c1c(O)c(OC)cc3c1[C@H](C2)[N+](C)(C)CC3.O=[N+]([O-])c1cc([N+](=O)[O-])c([O-])c([N+](=O)[O-])c1[O-]`: the inhibition was inactive: 11.6%. With `O=[N+]([O-])c1cc([N+](=O)[O-])c(Nc2ccc(Cl)cc2)c([N+](=O)[O-])c1` the figure was inactive: 2.7%; with `CP(=O)(Nc1ccccc1F)Oc1ccccc1` (stereo not drawn), inactive: -1.4%. For `CC(C)c1ccc(OP(C)(=O)Nc2ccc(SC(F)(F)F)cc2)cc1` (stereo not drawn) the value was inactive: 0.5%. For `Cc1c([N+](=O)[O-])cc([N+](=O)[O-])c(Br)c1[N+](=O)[O-]` the value was inactive: 0.1%.
